The entries are a selection whose mix differs from that of the whole data set. Results filed as inconclusive are left out. Calls of active or inactive are those of the source. The call rests on the fitted dose curve; in most records, active means well fitted inhibition curve with a large enough effect; inconclusive means small, poorly fitted or top-dose-only effect, or another doubt; inactive means no such curve, though single readings can be large or run the other way.
target: DNA polymerase beta (Homo sapiens) (UniProt P06746); assay: qHTS Assay for Inhibitors of DNA Polymerase Beta; details: Pol beta primer extension/strand displacement, fluorescence kinetic; series mostly up to 114 µM; activity change, negative = inhibition: at the top concentration
Description: The base excision repair system in human cells is a target for therapeutic modulation of the response to irradiation treatment and DNA-damaging drugs. A key enzyme in this system is the bi-functional DNA polymerase known as DNA polymerase Beta (Pol Beta). The following is a homogeneous kinetic assay to study the primer extension and strand-displacement reaction catalyzed by pol beta.
A stepwise description of the 1536-well assay is shown in next Table. Three microliters of reagents (buffer in column 3 and 4 as negative control and 10 nM Pol beta in columns 1, 2, and 5-48) was dispensed into 1,536-well black solid-bottomed plate. Compounds (23 nL) were transferred via Kalypsys pin tool equipped with 1536-pin array (10 nL slotted pins, V&P Scientific, San Diego, CA). The plates were incubated for 15 min at room temperature, and 1 uL substrate (50 nM final concentration) were added to start the reaction and immediately read at 0 min read on Viewlux reader. The plate were further incubated for 10 min at room temperature, and then read on Viewlux again. Throughout the screen, reagent bottle and all liquid lines were chilled and made light-tight to minimize reagent degradation. All screening operations were performed on a fully integrated robotic system (Kalypsys, San Diego, CA) containing one RX-130 and two RX-90 anthropomorphic robotic arms (Staubli, Duncan, SC). Library plates were screened starting from the lowest and proceeding to the highest concentration, and a double-dipping step of the highest concentration was required to access higher concentrations of compounds. Vehicle-only plates, with DMSO being pin-transferred to the entire column 5-48 compound area, were inserted uniformly at the beginning and the end of each library in order to monitor for and record any shifts in the background, which can be affected by reagent dispensers or loss in enzyme activity overtime. Screening data were corrected, normalized, and concentration-effect relationships were derived by using publicly-available curve fitting algorithms developed in-house (http://ncgc.nih.gov/pub/openhts). A four parameter Hill equation was fitted to the concentration-response data by minimizing the residual error between the modeled and observed responses.
On the % scale 0 is the no-effect control and ±100 the full control effect; potency means the concentration at half of the fitted maximal effect.

SMILES	activity change, negative = inhibition	Potency
c1nnnn1CCn1cnnn1	inactive: 8.96%	–
CC(C)C(=O)NC(Sc1ccccc1)C(Cl)(Cl)Cl (stereo not drawn)	inactive: 26.3%	–
O=P(Nc1nccs1)(c1ccccc1)c1ccccc1	inactive: -28.8%	–
Nc1ccc([As](=O)(O)c2ccc([N+](=O)[O-])cc2)cc1	inactive: 0.976%	–
C(Cc1nn[nH]n1)Cc1nn[nH]n1	inactive: 13.6%	–
O=C(OC1CN2CCC1CC2)c1cccc(Cl)c1 (stereo not drawn)	inactive: -17.2%	–
O=[N+]([O-])c1ccc(O)c(/C=N/Nc2ccc([N+](=O)[O-])cc2[N+](=O)[O-])c1	inactive: 20%	–
CC(=O)NC(SC(=S)N(C)C)C(Cl)(Cl)Cl (stereo not drawn)	inactive: -2.39%	–
O=[N+]([O-])c1ncn(CCn2cnc([N+](=O)[O-])n2)n1	inactive: 11.6%	–
O=[As](O)(c1ccccc1)c1ccc(O)cc1	inactive: -15.4%	–
O=P(Nc1nc2ccccc2s1)(c1ccccc1)c1ccccc1	inactive: 21.7%	–
C[C@H]1OP(=O)(Oc2ccccc2)[C@H](O)[C@H](O)[C@H]1N=[N+]=[N-] (stereo partly drawn)	inactive: 1.45%	–
O=P(Nc1ccccn1)(c1ccc(Br)cc1)c1ccc(Br)cc1	inactive: -13.1%	–
CN(C)C1(CNC(=O)c2ccc(Cl)c(S(N)(=O)=O)c2)CCCCC1	inactive: 10.2%	–
Cc1ccccc1OP(=O)(Nc1ccccn1)Oc1ccccc1C	inactive: 11.2%	–
CN(C)C(=O)Oc1noc2ccccc12	inactive: 8.63%	–
O=c1c2cc([N+](=O)[O-])ccc2[nH]c2c([N+](=O)[O-])cc([N+](=O)[O-])cc12	inactive: -3.84%	–
COC(=O)c1cc2c(s1)N=C(c1ccccc1)N(C)P2(=O)N1CCOCC1 (stereo not drawn)	inactive: 33.5%	–
CC(=O)NC(SC(=S)N(CC(C)C)CC(C)C)C(Cl)(Cl)Cl (stereo not drawn)	inactive: 16.6%	–
Cc1ccc(OP(=O)(Nc2ccccn2)Oc2ccc(C)cc2)cc1	inactive: -2.94%	–
CN(C(=O)Cc1ccc(Cl)c(Cl)c1)[C@@H]1CCCC[C@@H]1N1CCCC1	inactive: 20.1% [at 57.1 µM]	–
O=C(OC1CN2CCC1CC2)c1ccccc1 (stereo not drawn)	inactive: 18.2%	–
CCC(=O)N1C2C3N(C(=O)CC)C1C1N(C(=O)CC)C(C(N1C(=O)CC)N3C(=O)CC)N2C(=O)CC	inactive: 16.2%	–

SMILES	activity change, negative = inhibition	Potency
CCNC(=S)/N=C(\N)N[N+](=O)[O-]	inactive: 52.5%	–
O=C(NC1CCS(=O)(=O)C1)NP(=S)(Oc1ccccc1)Oc1ccccc1 (stereo not drawn)	inactive: 23%	–
c1ccc(-c2nn[nH]n2)c(-c2nn[nH]n2)c1	inactive: 2.61%	–
Cc1ccc(NP(=O)(Oc2cccc(C)c2)Oc2cccc(C)c2)nc1	inactive: 3.61%	–
CCOC(=O)NC(Sc1ccccc1)C(Cl)(Cl)Cl (stereo not drawn)	inactive: 17.8%	–
CC(=O)Nc1ccc([As](=O)(O)O)c(O)c1	inactive: 9.14%	–
CC(=O)c1ccc(N2CC2c2ccncc2)cc1 (stereo not drawn)	inactive: 1.87%	–
C[C@@H]1C=CCP(=O)(Oc2ccccc2)O1 (stereo partly drawn)	inactive: -5.34%	–
C[C@H]1OP(=O)(Oc2ccccc2)C[C@@H]2O[C@@H]21 (stereo partly drawn)	inactive: 1.89%	–
CC(C)(C)C(=O)NC(Sc1ccccc1)C(Cl)(Cl)Cl (stereo not drawn)	–	active: 79.4 µM
O=P1(Nc2nc3ccc(Cl)cc3s2)COc2ccccc2O1 (stereo not drawn)	inactive: -25.2%	–
CCOc1ccc(C2=NCC(CBr)S2)cc1 (stereo not drawn)	inactive: -0.739%	–
CC(C)CC(=O)NC(Sc1ccc(Cl)cc1)C(Cl)(Cl)Cl (stereo not drawn)	inactive: 26.7%	–
Nc1cc(N)c2nonc2c1[N+](=O)[O-]	inactive: -29.9%	–
Oc1ccccc1CNc1ccccn1	inactive: -24.7%	–
Cc1c2non([O-])c-2c(C)[n+](=O)[n+]1[O-]	inactive: 33.1%	–
O=C(NC(Sc1ccncn1)C(Cl)(Cl)Cl)c1ccccc1 (stereo not drawn)	inactive: 61.5%	–
COc1ccccc1OP(=O)(Nc1ccc(C)cn1)Oc1ccccc1OC	inactive: 4.71%	–
Cc1ccc(OP(=O)(Nc2nccs2)Oc2ccc(C)cc2)cc1	inactive: -18.7%	–
Clc1ccc(Cl)c(NC2=NCC(CBr)S2)c1 (stereo not drawn)	inactive: 2.54%	–
CN1CCCC(OC(=O)C(c2ccccc2)c2ccccc2)C1 (stereo not drawn)	inactive: -0.222%	–
NC(=O)c1cc([N+](=O)[O-])cc([N+](=O)[O-])c1N	inactive: 14%	–
Cc1ccc(N/C(=N/P(=O)(N2CCOCC2)N2CCOCC2)N2CCOCC2)cc1	inactive: 89.4%	–

SMILES	activity change, negative = inhibition	Potency
CCN(N=Nc1nonc1N)c1nonc1N	inactive: -6.42%	–
Nc1cccc2ccc([As](=O)(O)O)cc12	–	active: 22.4 µM
CCOP(=O)(Nc1ccccc1)OCC	–	inactive
Cc1cc(SC(NC(=O)c2ccc(F)cc2)C(Cl)(Cl)Cl)ncn1 (stereo not drawn)	inactive: 15.8%	–
CN(C(=O)Cc1ccc(Cl)c(Cl)c1)[C@H]1CCCC[C@@H]1N1CCCC1	–	inactive
O=C(O)c1ccccc1[As](=O)(O)O	inactive: -11.8%	–
CC(=O)Nc1ccc([As](=O)(O)O)cc1	inactive: -16.5%	–
O=P(Nc1nc2ccc(Cl)cc2s1)(c1ccccc1)c1ccccc1	inactive: 7.26%	–
O=[N+]([O-])c1cccc(NC2=NCC(CBr)S2)c1 (stereo not drawn)	inactive: 2.4%	–
O=C(O)CNc1ccc([As](=O)(O)O)cc1	inactive: 7.18%	–
CC(C)(C)C(=O)NC(Sc1ccncn1)C(Cl)(Cl)Cl (stereo not drawn)	inactive: 0.0044%	–
O=[N+]([O-])c1ncn(CCn2ncnc2[N+](=O)[O-])n1	inactive: 35%	–
O=C(Nc1cc([As](=O)(O)O)ccc1O)c1ccccc1	inactive: -1.58%	–
CC(C)=N/N=C(\N)N[N+](=O)[O-]	inactive: -18.7%	–
CN(C)C(=O)OCCc1n(C)cc[n+]1C	inactive: -8.5%	–
CC1CCN(C(=O)Oc2c(Cl)cc(Cl)c3cccnc23)CC1	inactive: -0.7%	–
Nc1ccc([As](=O)(O)c2ccc(N)cc2)cc1	inactive: 7.91%	–
CCN(/C(=N/P(=O)(N1CCOCC1)N1CCOCC1)N1CCOCC1)c1ccc(OC)cc1	inactive: -0.129%	–
O=[N+]([O-])c1cccc2n[nH]nc12	inactive: 25.3%	–
CC(=O)N1C2C3N(C(C)=O)C1C1N(C(C)=O)C(C(N1C(C)=O)N3C(C)=O)N2C(C)=O	inactive: 31.7%	–
Cc1ccc(NP(=O)(Oc2ccccc2)Oc2ccccc2)nc1	inactive: 14.3%	–
CCc1nc2c(n1)c1c(non1O)c1c2no[n+]1[O-]	inactive: 0.0982%	–

— PubChem BioAssay AID485314 (National Center for Advancing Translational Sciences (NCATS), 2010)
